Measurements published in patent US12576127B2, “Fibroblast binding agents and use thereof” (Orionis Biosciences, Inc., priority 2018, dated 2026).

What was measured:
HL116 cells = experiment: Luciferase reporter activity on parental HL116 cells; type: cell-based; settings: parental HL116, 6 hours stimulation
HL116-hFAP cells = experiment: Luciferase reporter activity on HL116-hFAP cells; type: cell-based, human

## Wild type IFN: wild type, untargeted IFNα2
HL116 cells
  EC50 HL116: 0.11 ng/mL
HL116-hFAP cells
  Targeting Index (ratio EC50 HL116/HL116-FAP): 1.2
HL116-hFAP cells; HL116-hFAP, 6 hours stimulation, luciferase
  EC50 HL116-FAP: 0.09 ng/mL
